We go through 1 molecule from paper PMC12503259, “Establishment of an in vivo analytical method for detecting total anti-UFH activity and pharmacokinetic study in PS and R15 in rats” (PLOS One, 2025).

For one data set, the system named is metallocarboxypeptidases. The settings on record: cited from earlier work. An excerpt:
Response: Thank you for your question. […] Because the article and thesis are in Chinese, we added the URL of article/ dissertation (in English) at the end of this response.

Data set [1] is described as follows: Stability of stock solution at 4°C for a week. The format is physicochemical. The settings on record: stock solution for 1 week, mean of n=6. As to the method:
Preparation of Stock Solutions: Appropriate amounts of PS and R15 powders were accurately weighed and dissolved in deionized water to obtain stock solutions at 10 mg·mL^-1, respectively. This solution was stored in a refrigerator at 4 °C and replaced regularly.
Two concentration levels (low and high QC) were evaluated for validation of storage stability and freeze/thaw stability. Two concentration levels of PS and R15 (low and high QC) in blank rat plasma were prepared (n = 6), respectively. Samples in rats’ plasma were determined after storage at room temperature (25°C ± 1°C) for 30 min. Samples in rats’ plasma were under three freeze (−80°C)-thaw (25°C) cycles. Stock solution of PS and R15 were stored at 4°C for a week. All the samples mentioned above were processed by calibration curves with adequate QC samples diluted from newly prepared stock solution of PS and R15, followed by procedure of sample determination (see “Sample Preparation”), respectively.

The nature of data set [2]: Stability in rat plasma after three freeze-thaw cycles. In kind it is in vitro ADME. The conditions noted are these: three freeze (−80°C)-thaw (25°C) cycles; for Measured concentration after storage, Mean ± SD: n = 6. The protocol: Processing of Plasma Samples: 100 μL of the unknown plasma sample was added to 500 μL of 75% methanol (methanol: water = 75:25, v/v) and vortex-mixed for 5 seconds. The mixture was then centrifuged at 12,000 r/min for 10 minutes at 25°C. The supernatant (500 μL) was collected and dried under nitrogen at 60°C. Subsequently, UFH (0.14 U·mL^-1 for PS and 0.15 U·mL^-1 for R15; 120 μL) was added, and the mixture was vigorously shaken at room temperature for 10 minutes. The residual UFH content was measured using the Heparin Anti-FXa assay kit.
The detailed procedure is as follows: Accurately pipette 40 μL of the sample into a 96-well plate. Place the plate in a microplate shaker. Using a multichannel pipette, add 40 μL of reagent R1 and mix by shaking. Incubate at 37 °C for exactly 3 minutes (start timing upon addition of R1; at 50 seconds, begin shaking with the microplate shaker for 1 minute, then place the plate in the incubator). Remove the 96-well plate from the incubator and place it on the open microplate shaker. Using a multichannel pipette, add 40 μL of reagent R2 to each well and incubate at 37 °C for 6 minutes (after adding R2, at 3 minutes and 50 seconds, open the microplate shaker and shake for 4 minutes, then return the plate to the incubator). Remove the 96-well plate from the incubator and place it on the open microplate shaker. Quickly add 40 μL of reagent R3 using a multichannel pipette and shake until 9 minutes and 10 seconds. At 9 minutes and 30 seconds, add 80 μL of 20% acetic acid to each well to terminate the reaction. Measure the absorbance at 405 nm using a microplate reader (Multiskan FC, Thermo Fisher US).
Two concentration levels (low and high QC) were evaluated for validation of storage stability and freeze/thaw stability. Two concentration levels of PS and R15 (low and high QC) in blank rat plasma were prepared (n = 6), respectively. Samples in rats’ plasma were determined after storage at room temperature (25°C ± 1°C) for 30 min. […] Stock solution of PS and R15 were stored at 4°C for a week. All the samples mentioned above were processed by calibration curves with adequate QC samples diluted from newly prepared stock solution of PS and R15, followed by procedure of sample determination (see “Sample Preparation”), respectively.

Regarding `N=C(N)NCCC[C@H](NC(=O)[C@H](CCCNC(=N)N)NC(=O)[C@H](CCCNC(=N)N)NC(=O)[C@H](CCCNC(=N)N)NC(=O)[C@H](CCCNC(=N)N)NC(=O)[C@H](CCCNC(=N)N)NC(=O)[C@H](CCCNC(=N)N)NC(=O)[C@H](CCCNC(=N)N)NC(=O)[C@H](CCCNC(=N)N)NC(=O)[C@H](CCCNC(=N)N)NC(=O)[C@H](CCCNC(=N)N)NC(=O)[C@H](CCCNC(=N)N)NC(=O)[C@H](CCCNC(=N)N)NC(=O)[C@H](CCCNC(=N)N)NC(=O)[C@@H](N)CCCNC(=N)N)C(=O)O` [R15], the in vivo metabolism entry in the data set with metallocarboxypeptidases was “metabolized by metallocarboxypeptidases into R12, R13, and R14”. Moreover, the “Mean determined concentration, stability of stock solution” value in data set [1] (nominal 0.7 μg/mL) amounted to 0.74 µg/mL; in data set [1] (nominal 1.5 μg/mL) it was 1.71 µg/mL. In addition, the “Measured concentration after storage, Mean ± SD” value in data set [2] (nominal 0.7 μg·mL^-1, anti-FXa read-out at 405 nm) amounted to 0.72 ± 0.02 µg/mL; in data set [2] (nominal 1.5 μg·mL^-1, anti-FXa read-out at 405 nm), 1.54 ± 0.09 µg/mL. Further, the “RE (%) versus nominal concentration” value in data set [2] (nominal 0.7 μg·mL^-1, n = 6) stood at 3.06%; in data set [2] (nominal 1.5 μg·mL^-1, n = 6), 2.60%.
